Results taken from US20200121645A1, “COMPOSITION FOR PREVENTING OR TREATING EGFR-MUTANT NON-SMALL CELL LUNG CANCER” (THE ASAN FOUNDATION, priority 2018, published 2020).

System: EGFR-mutant NSCLCs (PC9 and H1975)
Experiment: Apoptotic cell death by Annexin V/PI staining and flow cytometry
Type: cell-based
Settings: 2DG 10 mM; MPYR or AKG 7 mM, NAC 4 mM
Description: Apoptotic cell death was detected using an Annexin-V/FITC assay. Cells were harvested by trypsinization, washed with PBS, and resuspended in Annexin-V binding buffer (10 mM HEPES, pH 7.4, 140 mM NaCl, 2.5 mM CaCl2) containing Annexin-V FITC and propidium iodide. Stained cells were quantified and analyzed on a flow cytometer (BeckmanCoulter, Brea, Calif., USA).

## O=C(O)CCC(=O)C(=O)O [α-ketoglutarate]
  rescue from 2DG treatment-induced apoptotic cell death: reversed significantly
